# Source: PubChem BioAssay AID504810 (National Center for Advancing Translational Sciences (NCATS), 2011)
# The chains behind the UniProt entries cited, without tags or fusion partners.
# UniProt P16473, whole entry: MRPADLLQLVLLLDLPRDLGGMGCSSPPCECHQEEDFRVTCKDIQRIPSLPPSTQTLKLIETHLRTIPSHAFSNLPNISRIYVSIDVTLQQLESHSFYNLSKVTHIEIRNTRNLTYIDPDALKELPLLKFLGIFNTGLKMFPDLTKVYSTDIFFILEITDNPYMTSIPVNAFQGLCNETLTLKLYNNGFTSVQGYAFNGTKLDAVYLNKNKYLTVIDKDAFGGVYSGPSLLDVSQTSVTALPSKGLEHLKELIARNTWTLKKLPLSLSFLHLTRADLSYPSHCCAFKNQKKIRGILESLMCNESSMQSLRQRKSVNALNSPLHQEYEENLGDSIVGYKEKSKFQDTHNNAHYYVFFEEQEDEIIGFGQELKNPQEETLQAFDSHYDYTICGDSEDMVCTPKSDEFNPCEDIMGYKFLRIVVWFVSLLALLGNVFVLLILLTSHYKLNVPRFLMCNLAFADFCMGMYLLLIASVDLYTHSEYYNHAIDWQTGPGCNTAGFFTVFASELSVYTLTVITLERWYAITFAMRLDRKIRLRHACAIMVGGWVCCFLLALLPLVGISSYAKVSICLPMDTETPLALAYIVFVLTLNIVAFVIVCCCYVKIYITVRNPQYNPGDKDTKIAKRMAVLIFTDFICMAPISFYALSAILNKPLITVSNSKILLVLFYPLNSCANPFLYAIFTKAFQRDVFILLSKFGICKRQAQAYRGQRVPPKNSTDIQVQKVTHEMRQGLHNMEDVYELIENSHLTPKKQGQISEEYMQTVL
# The list shows a part of the results, in another mix than the full data. Activity calls are given as the source filed them.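 How the source made its calls: active means activity change below a set negative limit, meaning inhibition stronger than a set level (cut at about -70% in these data); inconclusive means activity change between two set negative limits; inactive means the rest.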
# Target: Thyrotropin receptor (Homo sapiens) (UniProt P16473)
# Test: Antagonists of the Thyroid Stimulating Hormone Receptor: HTS campaign
# Settings: TSHR-expressing cells, TSH-stimulated cAMP HTRF, 2 h; at 11.5 µM; hits give low values
# Excerpt: The thyroid-stimulating hormone receptor (TSHR) is a member of the 7 trans-membrane-spanning receptor (7TMR) family of cell surface receptors. TSHR-mediated hyperthyroidism is important in thyroid pathology. The development of small molecule antagonists of TSHR may lead to therapeutic approaches for TSHR-mediated hyperthyroidism caused by constitutively activating mutations or stimulating auto-antibodies associated with Graves' disease. Graves' disease is the leading cause of hyperthyroidism and is caused by autoantibodies that stimulate TSHR (TsAbs) causing thyroid growth and unregulated overproduction of thyroid hormones and existing treatments have liabilities (agranulocytosis). In addition, TSHRs are known to be expressed in multiple extrathyroidal tissues including bone, brain, kidney, testis, fat and cells of the immune system but the role of the TSHR in these tissues is not clear. Therefore, TSHR antagonists/inverse agonists could be used as probes of extrathyroidal TSHR function. Finally, TSHR inverse agonists, which are a subclass of antagonists that inhibit agonist-independent (or basal or constitutive) TSHR signaling, could be used to inhibit TSH-independent signaling in patients with recurrent or metastatic thyroid cancer who are receiving thyroid hormone to suppress TSH. In collaboration between scientist from the NCGC and the NIDDK, a miniaturized HTRF high-throughput screen was developed. It's a cell based assay, where an anti cAMP antibody contains a fluorescent cryptate tag (excitation 337 nm; emission 620 nm) and the acceptor is cAMP-d2 (excitation 620 nm; emission 665 nm). When antibody and cAMP-d2 interact and are excited by a 337 nm light, a FRET occurs resulting in emission at 665 nm. The assay is competition between cAMP-d2 and cAMP (from the cell lysate). The homogeneous protocol allows for one step dispense after stimulation that is automation friendly. NIH Chemical Genomics Center [NCGC] NIH Molecular Libraries Probe Centers Network [MLPCN] MLPCN Grant: MH090855-01 Assay Submitter (PI): Marvin Gerhengorn
# 1. 3ul of 200 TSHR freshly harvested cells/well are dispensed into a 1536 TC-treated white solid bottom plate. 2. Through pintool addition, 23nl of compounds and control in 100% DMSO are added to the plate. 3. Then 1ul of EC80 TSH (4nM final) is added to the plate. 4. Assay is incubated at 37 deg C for 2 hours. 5. 2ul of cAMP antibody diluted 1:20 in lysis buffer is added. 6. Immediately following, 2ul of d2 diluted 1:20 in HBSS is added seperately. 7. The assay is incubated for 30 minutes at ambient room temperature. 8. The result is obtained by using a ViewLux read-out with HTRF settings.
# On the % scale 0 is the no-effect control and ±100 the full control effect.
row,SMILES,"activity change, negative = inhibition"
1,O=[N+]([O-])c1cc([N+](=O)[O-])c(-n2nnc3ccccc32)c([N+](=O)[O-])c1,inactive: 6.6%
2,Cc1nc2ccc3ccccc3c2s1.O=[N+]([O-])c1cc([N+](=O)[O-])c(O)c([N+](=O)[O-])c1,inactive: -3.5%
3,O=[N+]([O-])c1cc([N+](=O)[O-])c(Nc2nnnn2CCO)c([N+](=O)[O-])c1,inactive: -19.2%
4,CN1CCCCC1COC(=O)C1(O)c2ccccc2CCc2ccccc21 (centres undefined),inactive: 2.69%
5,COc1ccccc1OP(C)(=O)Nc1c(C)cccc1C (centres undefined),inactive: -13.9%
6,CCCOc1ccc(NP(C)(=O)Oc2ccc(Cl)cc2)cc1 (centres undefined),inactive: -8.81%
7,CP(=O)(Nc1ccc(SC(F)(F)F)cc1)Oc1ccccc1 (centres undefined),inactive: -4.88%
8,CC1=NCCc2c1[nH]c1ccccc21.O=[N+]([O-])c1cc([N+](=O)[O-])c(O)c([N+](=O)[O-])c1,inactive: 8.35%
9,COc1ccccc1OP(C)(=O)Nc1cccc(Br)c1 (centres undefined),inactive: 2.57%
10,Cc1cc(C)cc(OP(C)(=O)Nc2ccc(C)cc2C)c1 (centres undefined),inactive: 1.37%
11,CCOC(=O)c1ccc(NP(C)(=O)Oc2cc(C)cc(C)c2)cc1 (centres undefined),inactive: 22.5%
12,Cc1cc(C)cc(OP(C)(=O)Nc2ccccn2)c1 (centres undefined),inactive: 1.24%
13,CP(=O)(Nc1cccc(Br)c1)Oc1ccccc1 (centres undefined),inactive: 25.3%
14,Cc1ccc(C)c(NP(C)(=O)Oc2ccccc2)c1 (centres undefined),inactive: 5.6%
15,CCN(CC)CCCOC(=O)C(O)(c1ccccc1)c1ccccc1,inactive: 12.4%
16,O=[N+]([O-])c1cc([N+](=O)[O-])c(Nc2cccnc2)c([N+](=O)[O-])c1,inactive: -22.9%
17,CC(C)(C)c1ccc(OP(C)(=O)Nc2ccc(SC(F)(F)F)cc2)cc1 (centres undefined),inactive: 7.95%
18,Cc1cccc(C)c1OP(C)(N)=O (centres undefined),inactive: 17.7%
19,O=[N+]([O-])c1ccc2c(c1)C=Nc1ccccc1O2,inactive: -3.91%
20,CCOC(=O)c1ccc(NP(C)(=O)Oc2ccccc2)cc1 (centres undefined),inactive: 0.355%
21,COc1ccccc1OP(C)(=O)Nc1ccc(C)cc1 (centres undefined),inactive: 8.34%
22,Cc1ccc(NP(C)(=O)Oc2ccccc2)c(C)c1 (centres undefined),inactive: 16.3%
23,COc1ccccc1OP(C)(=O)Nc1cc(Cl)ccc1C (centres undefined),inactive: -4.27%
24,COc1ccc(OP(C)(=O)Nc2cccc(F)c2)cc1 (centres undefined),inactive: -1.45%
25,Cc1cc(C)cc(OP(C)(N)=O)c1 (centres undefined),inactive: 6.31%
26,CP(=S)(Nn1cnnc1)Oc1ccccc1 (centres undefined),inactive: 4.83%
27,COc1ccccc1OP(C)(=O)Nc1ccccc1 (centres undefined),inactive: -1.24%

row,SMILES,"activity change, negative = inhibition"
1,CP(=O)(Nc1ccccc1Br)Oc1ccccc1 (centres undefined),inactive: 7.12%
2,CP(=O)(Nc1ccc(SC(F)(F)F)cc1)Oc1ccc(Cl)cc1 (centres undefined),inactive: -2.02%
3,Cc1cccc(C)c1OP(C)(=O)Nc1ccc(SC(F)(F)F)cc1 (centres undefined),inactive: -11.9%
4,CP(=O)(Oc1ccccc1)OC(c1ccccc1)C(F)(F)F (centres undefined),inactive: -12.2%
5,CP(=O)(NC(=O)Nc1ccccc1)Oc1ccccc1 (centres undefined),inactive: -1.46%
6,CCc1ccc(OP(C)(=O)N2CCN(c3ccc([N+](=O)[O-])cc3)CC2)cc1 (centres undefined),inactive: -1.48%
7,Cc1cc(C)cc(OP(C)(=O)Nc2ccc(SC(F)(F)F)cc2)c1 (centres undefined),inactive: -9.22%
8,CCOP(C)(=S)SCC(=O)NC(C)C(=O)O (centres undefined),inactive: 18.3%
9,CCOC(=O)c1ccc(NP(C)(=O)Oc2ccc(OC)cc2)cc1 (centres undefined),inactive: -7.13%
10,CCN(CC)CC(O)COC(=O)C(O)(c1ccccc1)C1CCCCC1 (centres undefined),inactive: -2.56%
11,COc1ccc(OP(C)(=O)Nc2ccc(Br)cc2)cc1 (centres undefined),inactive: 5.78%
12,CP(=O)(Oc1ccccc1)N1CCOC1=O (centres undefined),inactive: 10.7%
13,CCc1ccc(OP(C)(=O)Nc2cccnc2)cc1 (centres undefined),inactive: 2.49%
14,COc1ccccc1OP(C)(=O)Nc1c(C)n(C)n(-c2ccccc2)c1=O (centres undefined),inactive: -9.14%
15,O=C(OCCCN1CCCC1)C(O)(c1ccccc1)C1CCCCC1 (centres undefined),inactive: 33.7%
16,CP(=O)(Nc1ccc(Cl)cc1)Oc1ccc(F)cc1 (centres undefined),inactive: -14.2%
17,COc1ccccc1OP(C)(=O)Nc1ccccc1Br (centres undefined),inactive: -9.23%
18,CC(C)(C)c1ccc(OP(C)(=O)O)cc1,inactive: -2.96%
19,CN(C)C(=O)c1c([N+](=O)[O-])cc([N+](=O)[O-])cc1[N+](=O)[O-],inactive: 7.59%
20,CP(=O)(OC12CC3CC(CC(C3)C1)C2)OC12CC3CC(CC(C3)C1)C2,inactive: -0.643%
21,CCOC(=O)c1ccc(NP(C)(=O)Oc2ccc(Cl)cc2)cc1 (centres undefined),inactive: 1.58%
22,Cc1cc(C)cc(OP(C)(=O)Nc2cccc(C(F)(F)F)c2)c1 (centres undefined),inactive: -7.29%
23,COc1ccc(OP(C)(=O)Nc2ccccc2Br)cc1 (centres undefined),inactive: 17.2%
24,COc1ccccc1OP(C)(=O)Nc1ccc(C)c(C)c1 (centres undefined),inactive: 13.7%
25,Cc1nc2ccc3ccccc3c2o1.O=[N+]([O-])c1cc([N+](=O)[O-])c(O)c([N+](=O)[O-])c1,inactive: 7.28%
26,CP(=O)(Nc1ccc(Cl)cc1Cl)Oc1ccccc1 (centres undefined),inactive: 1.95%
27,CP(=O)(OCCOc1ccccc1)OCCOc1ccccc1,inactive: 3.08%

row,SMILES,"activity change, negative = inhibition"
1,COc1ccccc1OP(C)(=O)Nc1ccc(Br)cc1 (centres undefined),inactive: -4.45%
2,CN(C)CCOC(=O)C(O)(c1ccccc1)C1CCCC1 (centres undefined),inactive: 3.04%
3,COc1ccc(OP(C)(=O)Nc2ccccn2)cc1 (centres undefined),inactive: 5.8%
4,Cc1c(NP(C)(=O)Oc2ccc(C(C)C)cc2)c(=O)n(-c2ccccc2)n1C (centres undefined),inactive: 9.51%
5,O=[N+]([O-])c1cc([N+](=O)[O-])c(Nc2ccccn2)c([N+](=O)[O-])c1,inactive: 6.35%
6,CCc1ccc(OP(C)(=O)O)cc1,inactive: 14.4%
7,CP(=O)(Nc1ccccn1)Oc1ccccc1 (centres undefined),inactive: -3.03%
8,COc1ccccc1OP(C)(=O)Nc1ccc(C)cc1C (centres undefined),inactive: 0.962%
9,CC(C)c1ccc(OP(C)(=O)Nc2ccc(SC(F)(F)F)cc2)cc1 (centres undefined),inactive: 2.85%
10,CP(=O)(Nc1ccccc1F)Oc1ccccc1 (centres undefined),inactive: -1.66%
11,O=C(OCCN1CCN(CCOCc2ccccc2)CC1)C(O)(c1ccccc1)c1ccccc1,inactive: 3.21%
12,COc1ccc(OP(C)(=O)Nc2ccc(SC(F)(F)F)cc2)cc1 (centres undefined),inactive: 13.6%
13,CCOC(=O)c1ccc(NP(C)(=O)Oc2ccc(F)cc2)cc1 (centres undefined),inactive: -16.1%
14,CCN(CC)CCCOC(=O)C(O)(c1ccccc1)C1CCCCC1 (centres undefined),inactive: -13.9%
15,CCCCCOc1ccc(NP(C)(=O)Oc2ccc(Cl)cc2Cl)cc1 (centres undefined),inactive: 1.01%
16,CP(=O)(Nc1ccccc1)Oc1ccc(F)cc1 (centres undefined),inactive: 12.8%
17,COc1ccc(OP(C)(=O)Nc2cccc(Br)c2)cc1 (centres undefined),inactive: -0.488%
18,COc1ccc(NP(C)(=O)Oc2ccccc2OC)cc1 (centres undefined),inactive: 8.37%
19,CN(C)CCOC(=O)C(O)(c1ccccc1)C1CCCCC1 (centres undefined),inactive: 0.812%
20,Cc1cc(-c2cccc3ccccc23)c(C)cn1.O=[N+]([O-])c1cc([N+](=O)[O-])c(O)c([N+](=O)[O-])c1,inactive: -5.31%
21,O=[N+]([O-])c1ccc(OP2(=O)COCCO2)cc1 (centres undefined),inactive: 5.93%
22,CP(=O)(Nc1ccc(SC(F)(F)F)cc1)Oc1ccc(F)cc1 (centres undefined),inactive: -12.2%
23,CCOP(C)(=S)SCC(=O)NC(C)(CC)C(=O)O (centres undefined),inactive: 1.02%
24,CP(=O)(Nc1ccc2c(c1)OCCO2)Oc1ccccc1 (centres undefined),inactive: 0.182%
25,Cc1ccccc1NP(C)(=O)Nc1ccccc1C,inactive: 9.71%
